This is an account of results in patent publication US20070196865A1 (priority 2003, published 2007).

The experiment deals with β2AR, AT1AR, and DOR (Homo sapiens). To be noted: pool of three U2OS cell lines expressing β2AR, 37° C. for 45 minutes. The method, then:
The assays were carried out using various “double stable” human osteosarcoma cell (U2OS) lines. Each cell line stably expressed an arrestin-GFP conjugate of the Renilla reniformis green fluorescent protein fused in frame to the carboxyl terminus of rat β-arrestin2 as well as one of the following GPCRs: α1b adrenergic receptor (α1bAR), beta2-AR […], delta opioid (DOR) receptor, angiotensin1A receptor (AT1AR), or V2 vasopressin receptor (V2R).
Cells were plated 16-24 hours prior to the experiment at approximately 6,000 cells per well. Cells were removed from the flasks with trypsin and suspended in growth media for plating at a density of 100,000 cells per ml.
One of two methods were used to multiplex the cell lines. In one method, each cell line was dispensed independently such that the final cell number was approximately 6,000 cells per well. The dispense volume was adjusted depending on the number of cell lines used. […]
Plates were imaged for response determination on an In Cell Analyzer 3000, Gen. […] Pit or vesicle responses were quantitated using the Granularity Module of the Raven Software. That is, the In Cell Analyzer 3000 was used to quantitate the localization of the arrestin-GFP conjugate for the cells in each well. […] The average of the fluorescent intensity of the identified grains per cell in an acquired image (i.e., Fgrains) was determined for each well on the plates. […]

Usually EC50 stands for the concentration at which the effect is half-maximal. Higher therefore signals a need for much substance. [D-Pen2,D-Pen5]-enkephalin [DPDPE] returned an EC50 of 11.2 nM.
